Values quoted from earlier work as cited in publication PMC7157535.

By UniProt entry, the sequences of proteins in these tests, tags left out. Residues count along the entry.
UniProt P04233, 73-296: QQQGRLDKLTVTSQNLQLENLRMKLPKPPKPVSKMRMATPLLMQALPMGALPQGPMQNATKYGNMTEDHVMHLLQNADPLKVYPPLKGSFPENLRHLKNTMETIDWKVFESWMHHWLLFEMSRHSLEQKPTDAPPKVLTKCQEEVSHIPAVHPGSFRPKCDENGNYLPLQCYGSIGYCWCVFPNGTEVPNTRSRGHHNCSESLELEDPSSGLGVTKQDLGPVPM
UniProt P14174, 2-115: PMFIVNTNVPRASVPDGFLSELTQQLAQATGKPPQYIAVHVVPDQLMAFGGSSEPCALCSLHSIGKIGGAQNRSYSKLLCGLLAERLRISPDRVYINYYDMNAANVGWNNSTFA

Molecular target: CD74 (Homo sapiens) (UniProt P04233)

Kd: 9 nM
Substance: MIF (from UniProt P14174)
